By UniProt entry, the sequences of proteins in these tests, tags left out.
UniProt P35372, whole entry: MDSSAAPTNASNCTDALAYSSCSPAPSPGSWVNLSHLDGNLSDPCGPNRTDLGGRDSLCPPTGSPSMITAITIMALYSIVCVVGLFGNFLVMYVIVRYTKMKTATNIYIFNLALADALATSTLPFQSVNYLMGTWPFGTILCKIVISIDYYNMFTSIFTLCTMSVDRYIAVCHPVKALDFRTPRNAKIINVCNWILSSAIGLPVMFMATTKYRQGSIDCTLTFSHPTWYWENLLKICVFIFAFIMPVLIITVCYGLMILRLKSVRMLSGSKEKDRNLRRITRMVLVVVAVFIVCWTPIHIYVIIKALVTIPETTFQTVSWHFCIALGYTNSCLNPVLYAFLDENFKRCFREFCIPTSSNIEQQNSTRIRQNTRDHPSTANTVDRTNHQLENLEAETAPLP

According to PMC5177629, “Selective Estrogen Receptor Modulators: Cannabinoid Receptor Inverse Agonists with Differential CB1 and CB2 Selectivity” (Frontiers in Pharmacology, 2016):

Molecular target: T1, human mu opioid receptors (hMOR) (Homo sapiens, UniProt P35372)
T1 construct: expressed in transfected cells; host or cells: CHO cells (CHO-hMOR), membranes or intact cells
Assay: [35S]GTPγS binding, CHO-hMOR membranes (control devoid of CBRs)
Type: biochemical
Settings: 10 μM
Protocol: Non-specific binding was defined by radioactivity remaining in the presence of 10 μM of non-radioactive GTPγS. All reactions were incubated for 30 min at 30°C, terminated by filtration through Whatman GF/B glass fiber filters (Brandel, Inc.) and followed by four 4 ml washes of ice cold filtration buffer (50 mM HEPES, pH 7.4) containing 0.1% bovine serum albumin. Filter punches of individual samples were placed in scintillation vials containing 4 mls of ScintiverseTM BD cocktail scintillation fluid (Fisher Scientific, Pittsburg, PA, USA). Final counts were determined using liquid scintillation spectrophotometry (Tri Carb 2100 TR Liquid Scintillation Analyzer, Packard Instrument Company, Meriden, CT, USA) after overnight incubation.

## DAMGO
  increase in G-protein activity, CHO-hMOR: 53%
